From patent US9580449B2, “Compositions and methods for the production of pyrimidine and pyridine compounds with BTK inhibitory activity” (Merck Patent GmbH, priority 2011, dated 2017) come the findings set out here.

Sequences of proteins named here, by UniProt entry; tags and fusion partners are left off. A change or cut given only in a name is not applied to a line headed by its entry.
UniProt Q06187: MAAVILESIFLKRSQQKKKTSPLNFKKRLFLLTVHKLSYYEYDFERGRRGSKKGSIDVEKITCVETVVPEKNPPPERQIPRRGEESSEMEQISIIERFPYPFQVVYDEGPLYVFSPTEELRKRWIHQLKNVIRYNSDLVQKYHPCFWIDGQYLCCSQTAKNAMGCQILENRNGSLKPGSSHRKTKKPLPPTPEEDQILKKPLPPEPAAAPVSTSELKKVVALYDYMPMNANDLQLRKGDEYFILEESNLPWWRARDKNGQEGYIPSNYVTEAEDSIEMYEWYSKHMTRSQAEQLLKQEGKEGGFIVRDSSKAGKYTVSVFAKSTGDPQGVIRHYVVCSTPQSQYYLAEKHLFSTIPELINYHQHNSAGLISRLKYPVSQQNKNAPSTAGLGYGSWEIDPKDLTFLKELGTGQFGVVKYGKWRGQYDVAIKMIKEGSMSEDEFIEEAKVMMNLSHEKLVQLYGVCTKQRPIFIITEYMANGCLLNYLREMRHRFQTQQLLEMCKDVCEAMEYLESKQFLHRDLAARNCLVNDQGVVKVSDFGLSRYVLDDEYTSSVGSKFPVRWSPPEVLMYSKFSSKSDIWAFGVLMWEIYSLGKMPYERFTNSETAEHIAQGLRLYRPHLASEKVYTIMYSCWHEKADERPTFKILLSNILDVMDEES

The IC50 is the concentration at which inhibition is half-maximal.

In one experiment the target is full-length human BTK (Homo sapiens (Human), UniProt Q06187). As to the kind of experiment: BTK IC50 enzyme assay (microfluidic off-chip mobility shift kinase assay). In kind it is biochemical. Particulars: incubated for 90 min. at 27 C; read-out: Time Dependent BTK Enzyme Assay IC50. As to the method: The following describes a microfluidic, off-chip mobility shift kinase assay used to measure inherent potency of compounds against BTK enzyme. Compounds described by embodiments of the present invention were assayed using this protocol and the data from the same is recorded in Table 2 within the column labeled: “Time Dependent BTK Enzyme Assay IC50”.
Stopped reactions were monitored at −2 PSI, −3000 V/−700 V in a LabChip 3000 plate reader from Caliper Life Sciences, a PerkinElmer Company (Hopkinton, Mass.), and the activity was measured by off-chip mobility shift assay measuring the charge/mass difference between substrate and product resulting from peptide phosphorylation. IC50 and efficacy were determined by plotting log [Inhibitor] vs. % Activity in GeneData Screener (Basel, Switzerland). […] I<1 uM and II>1 uM.
As for `C=CC(=O)N[C@@H]1CC[C@H](Nc2ncnc(N)c2-c2ccc(Oc3ccccc3)cc2)C1` (relative stereo) [A181, N-(cis-3-((6-amino-5-(4-phenoxyphenyl)pyrimidin-4-yl)amino)cyclopentyl)acrylamide], the IC50 was less than 100 nM.
For the compound `C=CC(=O)N1CCCC(Nc2ncnc(N)c2-c2ccc(Oc3ccccc3)cc2)C1` (stereo not shown) [A253, 1-(3-((6-amino-5-(4-phenoxyphenyl)pyrimidin-4-yl)amino)piperidin-1-yl)prop-2-en-1-one], the IC50 was less than 100 nM.
Turning to `C=CC(=O)N1CCC[C@@H](Nc2ncnc(N)c2-c2ccc(Oc3ccccc3)cc2)C1` [A247, (R)-1-(3-((6-amino-5-(4-phenoxyphenyl)pyrimidin-4-yl)amino)piperidin-1-yl)prop-2-en-1-one], the IC50 was less than 100 nM.
Take `C=CC(=O)N[C@H]1CCC[C@@H](Nc2ncnc(N)c2-c2ccc(Oc3ccccc3)cc2)C1` [A173, N-((1S,3R)-3-((6-amino-5-(4-phenoxyphenyl)pyrimidin-4-yl)amino)cyclohexyl)acrylamide]: the IC50 was less than 100 nM.
Consider `Nc1ncnc(NCC2CCN(C(=O)CCl)CC2)c1-c1ccc(Oc2ccccc2)cc1` [A45, 1-(4-(((6-amino-5-(4-phenoxyphenyl)pyrimidin-4-yl)amino)methyl)piperidin-1-yl)-2-chloroethanone], for which the IC50 is less than 100 nM.
Consider `C=CC(=O)N[C@@H]1CCC[C@H](Nc2ncnc(N)c2-c2ccc(Oc3ccccc3)cc2)C1` (relative stereo) [A51, N-(cis-3-((6-amino-5-(4-phenoxyphenyl)pyrimidin-4-yl)amino)cyclohexyl)acrylamide], for which the IC50 is less than 100 nM.
Turning to `C=CC(=O)N1CC[C@@H](Nc2ncnc(N)c2-c2ccc(Oc3ccccc3)cc2)C1` [A1, (R)-1-(3-((6-amino-5-(4-phenoxyphenyl)pyrimidin-4-yl)amino)pyrrolidin-1-yl)prop-2-en-1-one], the IC50 was less than 100 nM.
On to `C=CC(=O)N[C@@H]1CCC[C@@H](Nc2ncnc(N)c2-c2ccc(Oc3ccccc3)cc2)C1` [A175, N-((1R,3R)-3-((6-amino-5-(4-phenoxyphenyl)pyrimidin-4-yl)amino)cyclohexyl)acrylamide], for which the IC50 was less than 1000 nM.
As for `C=CC(=O)N[C@@H]1CCC[C@H](Nc2ncnc(N)c2-c2ccc(Oc3ccccc3)cc2)C1` (relative stereo) [A174, N-((1R,3S)-3-((6-amino-5-(4-phenoxyphenyl)pyrimidin-4-yl)amino)cyclohexyl)acrylamide], the IC50 is more than 1000 nM.
For the compound `C=CC(=O)N1CC[C@H](Nc2ncnc(N)c2-c2ccc(Oc3ccccc3)cc2)C1` [A148, (S)-1-(3-((6-amino-5-(4-phenoxyphenyl)pyrimidin-4-yl)amino)pyrrolidin-1-yl)prop-2-en-1-one], the IC50 was less than 1000 nM.
`C=CC(=O)N1CCC(O)(CNc2ncnc(N)c2-c2ccc(Oc3ccccc3)cc2)CC1` [A37, 1-(4-(((6-amino-5-(4-phenoxyphenyl)pyrimidin-4-yl)amino)methyl)-4-hydroxypiperidin-1-yl)prop-2-en-1-one]: the IC50 is less than 100 nM.
Take `C=CC(=O)Nc1cccc(Oc2ncncc2-c2ccc(Oc3ccccc3)cc2)c1` [A255, N-(3-((5-(4-phenoxyphenyl)pyrimidin-4-yl)oxy)phenyl)acrylamide]: the IC50 is less than 100 nM.
For `C=CC(=O)N1CCC[C@H](Nc2ncnc(N)c2-c2ccc(Oc3ccccc3)cc2)C1` [A275, (S)-1-(3-((6-amino-5-(4-phenoxyphenyl)pyrimidin-4-yl)amino)piperidin-1-yl)prop-2-en-1-one], the IC50 is less than 100 nM.
Consider `C=CC(=O)N1CC2(CC(Nc3ncnc(N)c3-c3ccc(Oc4ccccc4)cc3)C2)C1` [A124, 1-(6-((6-amino-5-(4-phenoxyphenyl)pyrimidin-4-yl)amino)-2-azaspiro[3.3]heptan-2-yl)prop-2-en-1-one], for which the IC50 is less than 100 nM.
Same read-out and setting: for `C=CC(=O)N[C@H]1CCC[C@H](Nc2ncnc(N)c2-c2ccc(Oc3ccccc3)cc2)C1` [A176, N-((1S,3S)-3-((6-amino-5-(4-phenoxyphenyl)pyrimidin-4-yl)amino)cyclohexyl)acrylamide] the value was more than 1000 nM; for `C=CC(=O)N[C@H]1CC[C@H](Nc2ncnc(N)c2-c2ccc(Oc3ccccc3)cc2)C1` [A49, N-((1S,3S)-3-((6-amino-5-(4-phenoxyphenyl)pyrimidin-4-yl)amino)cyclopentyl)acrylamide], less than 1000 nM.
For `C=CC(=O)N[C@H]1CC[C@H](Nc2ncnc(N)c2-c2ccc(Oc3ccccc3)cc2)CC1` [A276, N-((1 r,4r)-4-((6-amino-5-(4-phenoxyphenyl)pyrimidin-4-yl)amino)cyclohexyl)acrylamide], the IC50 is less than 100 nM.
As for `C=CS(=O)(=O)N1CCC(CNc2ncnc(N)c2-c2ccc(Oc3ccccc3)cc2)CC1` [A10, 5-(4-phenoxyphenyl)-N4-((1-(vinylsulfonyl)piperidin-4-yl)methyl)pyrimidine-4,6-diamine], the IC50 is less than 100 nM.
Still for that read-out and setting: with `C=CC(=O)N1CCC(CNc2ncnc(N)c2-c2ccc(Oc3cccc(F)c3)cc2)CC1` [A34, 1-(4-(((6-amino-5-(4-(3-fluorophenoxy)phenyl)pyrimidin-4-yl)amino)methyl)piperidin-1-yl)prop-2-en-1-one] the figure was less than 100 nM.
Consider `C=CC(=O)N[C@H]1CC[C@@H](Nc2ncnc(N)c2-c2ccc(Oc3ccccc3)cc2)CC1` [A266, N-((1s,4s)-4-((6-amino-5-(4-phenoxyphenyl)pyrimidin-4-yl)amino)cyclohexyl)acrylamide], for which the IC50 was less than 100 nM.

The target of a further experiment is BTK (Homo sapiens (Human), UniProt Q06187). Description: Time Dependent Human Whole Blood IC50 assay. In kind it is cell-based. Particulars: read-out: Time Dependent Human Whole Blood BTK Enzyme Assay IC50. On the procedure:
Compounds described by embodiments of the present invention were assayed using a human whole blood assay. The data from the same is recorded in Table 2 within the column labeled: “Time Dependent Human Whole Blood BTK Enzyme Assay IC50”.
Consider `C=CC(=O)N1CCC(O)(CNc2ncnc(N)c2-c2ccc(Oc3ccccc3)cc2)CC1` [A37, 1-(4-(((6-amino-5-(4-phenoxyphenyl)pyrimidin-4-yl)amino)methyl)-4-hydroxypiperidin-1-yl)prop-2-en-1-one], for which the IC50 is less than 1000 nM.
For the compound `C=CC(=O)N[C@H]1CC[C@H](Nc2ncnc(N)c2-c2ccc(Oc3ccccc3)cc2)C1` [A49, N-((1S,3S)-3-((6-amino-5-(4-phenoxyphenyl)pyrimidin-4-yl)amino)cyclopentyl)acrylamide], the IC50 is more than 1000 nM.
